This test has as its target T1, VMAT2 N305A (Homo sapiens, UniProt Q05940, N305A).
T1 construct: transfected with the full-length WT hVMAT2-eGFP or the mutant plasmids; expressed in transfected cells; host or cells: HEK 293T
The experiment in a line: Inhibition of FFN246 uptake, VMAT2 N305A mutant. The format is cell-based. To be noted: HEK 293T cells, FFN246 1 μM (Fig. S11).

Amino acid sequences for entries named in this document (tags omitted).
UniProt Q05940, whole entry N305A: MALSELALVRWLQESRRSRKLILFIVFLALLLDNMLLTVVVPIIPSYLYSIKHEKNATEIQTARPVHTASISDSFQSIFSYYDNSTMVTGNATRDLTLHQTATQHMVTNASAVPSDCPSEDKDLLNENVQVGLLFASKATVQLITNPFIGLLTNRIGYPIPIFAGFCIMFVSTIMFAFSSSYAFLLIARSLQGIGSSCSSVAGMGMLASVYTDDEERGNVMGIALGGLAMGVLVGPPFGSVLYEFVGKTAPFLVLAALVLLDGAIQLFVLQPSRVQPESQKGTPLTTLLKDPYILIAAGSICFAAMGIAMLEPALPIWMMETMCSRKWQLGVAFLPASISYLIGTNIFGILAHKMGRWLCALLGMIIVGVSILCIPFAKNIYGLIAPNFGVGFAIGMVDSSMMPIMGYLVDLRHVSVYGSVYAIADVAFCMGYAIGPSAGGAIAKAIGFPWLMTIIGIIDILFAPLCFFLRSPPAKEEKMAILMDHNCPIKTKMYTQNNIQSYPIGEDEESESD

For `COC(=O)[C@H]1[C@H]2C[C@@H]3c4[nH]c5cc(OC)ccc5c4CCN3C[C@H]2C[C@@H](OC(=O)c2cc(OC)c(OC)c(OC)c2)[C@@H]1OC` [RES, reserpine], the “RES inhibition of FFN246 uptake, N305A substitution” value is recorded as “minor impact on RES inhibition”.

(Values after paper PMC10770148, “Transport and inhibition mechanism for VMAT2-mediated synaptic vesicle loading of monoamines” (Cell Research, 2024).)
